Experimental data: patent US20020173491A1, “DAPD combination therapy with inosine monophosphate dehydrogenase inhibitor” (priority 2000, published 2002)

Tested on: PBMCs
Experiment: XTT based cytotoxicity assay, PBMC
Format: cell-based
Conditions: at concentrations up to 1 MM

NC(=O)c1ncn([C@@H]2O[C@H](CO)[C@@H](O)[C@H]2O)n1 [RBV, 1-β-D-ribofuranosyl-1,2,4-triazole-3-carboxamide]
toxicity to PBMCs: not toxic
